Screens deposited in PubChem BioAssay by National Center for Advancing Translational Sciences (NCATS).
Rango release inh = qHTS Assay for Inhibitors of RanGTP induced Rango (Ran-regulated importin-beta cargo) - Importin beta complex dissociation | Snurportin-1 (Homo sapiens) + GTP-binding nuclear protein Ran (Homo sapiens) + Importin … | Biochemical FRET Rango-importin beta, RanGTP-induced dissociation | Potency, µM (highest dose often 46.1 µM), inactives show at the top dose activity change, negative = inhibition | 0.071% of 340,000 active | AID 540253, 2011; note: potency is the fitted concentration of half-maximal effect; % of control where 0% means no effect; nearly all actives have a fitted effect of over 45% in size
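Rango (0.1 uM)–importin beta (0.25 uM) complex; RanGTP-RCC1 trigger; 45 min RT; CFP/YFP FRET read.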
Rango-impB inh = qHTS Assay for Inhibitors of Rango (Ran-regulated importin-beta cargo) - Importin beta complex formation; Importin subunit beta-1 (Homo sapiens), Q14974; Rango CFP/YFP FRET sensor + importin beta, 45 min; Potency, µM (highest dose often 92.2 µM), inactives show top-dose inhibition of complex formation; 0.031% of 340,000 active;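 note: potency is the fitted concentration of half-maximal effect; 0% = DMSO wells and 100% = buffer wells lacking importin beta; nearly all actives have a fitted effect of over 15% in size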
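FRET biosensor (snurportin 1 IBB flanked by EYFP and cerulean), 50 nM, with compound 5 min, then 0.125 microM importin beta in PBS, 1 mM DTT, 0.02% Tween-20, 0.1% BSA. CFP/YFP ratio read after 45 min at room temperature; pre-read flags interference.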
CBFb RUNX1 block = qHTS Assay for Compounds Blocking the Interaction Between CBF-beta and RUNX1 for the Treatment of Acute Myeloid Leukemia | Runt-related transcription factor 1 (Homo sapiens) + Core-binding factor subunit beta … | AlphaScreen CBFb-His/RUNX1-biotin binding, biochemical | Potency, µM (highest dose often 59.8 µM), inactives show top-dose activity, negative = inhibition, most hits filed as inhibitors | 230,000 tested, under 10 active | AID 1477, 2009; active = well fitted curve in the direction sought with a large enough effect; inconclusive = small, poorly fitted or top-dose-only effect, or effect the other way, or another doubt; inactive = no such curve, though single readings can be large or run the other way; note: % of control where 0% means no effect
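Compounds were screened at multiple concentrations against a preformed CBF-beta(His)/RUNX1(biotin) complex (30 nM of each) for 15 min at room temperature, followed by 90 min with nickel and streptavidin beads and AlphaScreen reading.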
MBNL1-CUG inh = qHTS Assay for Inhibitors of MBNL1-poly(CUG) RNA binding; TR-FRET MBNL1-His/biotin-(CUG)12 binding, 665/545 ratio; Potency, µM (top dose mostly 57.5 µM), for the others: at the highest dose activity change, negative = inhibition, actives largely listed as inhibitors; 0.036% of 280,000 active; active = well fitted inhibition curve with a large enough effect in the signal ratio, with a control signal flat, not every such curve was filed as active; inconclusive = small, poorly fitted or top-dose-only effect, or effect the other way, or a change in a side signal; inactive = no such curve, though single readings can be large or run the other way; the % refers to the signal ratio; note: potency is the fitted concentration of half-maximal effect; % is set by controls: 0 for no effect and ±100 for the full control effect
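TR-FRET between His-tagged MBNL1 and biotin-(CUG)12 RNA, detected with Tb anti-His antibody (0.055 ng/ul) and streptavidin-XL665 (5 nM), 60 min at room temperature. Compounds titrated 92 nM to 58 uM; 665/545 nm ratio normalized to buffer and complex controls.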
ClpP mod = qHTS Assay for Activators of ClpP. ATP-dependent Clp protease proteolytic subunit (Bacillus subtilis (strain 168)), P80244. purified B. subtilis ClpP, FRET peptide cleavage, 20 min. Potency, µM (series often up to 57.5 µM), for the others: at the highest dose activity change, negative = active. 1.9% of 340,000 active. AID 651965, 2013; active = well fitted falling curve with a large enough effect; inconclusive = small, poorly fitted or top-dose-only effect; inactive = no such curve, though single readings can be large or run the other way; note: potency is the fitted concentration of half-maximal effect; the source files actives as falling curves though it sought activators and does not explain the sign; nearly all actives have a fitted effect of over 65% in size
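FRET quenching reversal measured ClpP activation: 10 microg/mL B. subtilis ClpP at pH 8 with the FRET-FV decapeptide, read at 430 nm after 320 nm excitation. The 20-min minus 0-min signal was scaled between DMSO/no-enzyme wells and ADEP (5.8 microM final).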
* marks the source's active call; other numbers are inactive results; ? = inconclusive; . = no result given; ! = repeats disagree; [ ] = another dose, or the depositor's remark. The entries come from a sample that favours hits as a whole. Unless noted, calls come from the whole dose curve.

The chains behind the UniProt entries cited, without tags or fusion partners.
Importin subunit beta-1 (Homo sapiens), Q14974, UniProt Q14974, whole entry, looked up: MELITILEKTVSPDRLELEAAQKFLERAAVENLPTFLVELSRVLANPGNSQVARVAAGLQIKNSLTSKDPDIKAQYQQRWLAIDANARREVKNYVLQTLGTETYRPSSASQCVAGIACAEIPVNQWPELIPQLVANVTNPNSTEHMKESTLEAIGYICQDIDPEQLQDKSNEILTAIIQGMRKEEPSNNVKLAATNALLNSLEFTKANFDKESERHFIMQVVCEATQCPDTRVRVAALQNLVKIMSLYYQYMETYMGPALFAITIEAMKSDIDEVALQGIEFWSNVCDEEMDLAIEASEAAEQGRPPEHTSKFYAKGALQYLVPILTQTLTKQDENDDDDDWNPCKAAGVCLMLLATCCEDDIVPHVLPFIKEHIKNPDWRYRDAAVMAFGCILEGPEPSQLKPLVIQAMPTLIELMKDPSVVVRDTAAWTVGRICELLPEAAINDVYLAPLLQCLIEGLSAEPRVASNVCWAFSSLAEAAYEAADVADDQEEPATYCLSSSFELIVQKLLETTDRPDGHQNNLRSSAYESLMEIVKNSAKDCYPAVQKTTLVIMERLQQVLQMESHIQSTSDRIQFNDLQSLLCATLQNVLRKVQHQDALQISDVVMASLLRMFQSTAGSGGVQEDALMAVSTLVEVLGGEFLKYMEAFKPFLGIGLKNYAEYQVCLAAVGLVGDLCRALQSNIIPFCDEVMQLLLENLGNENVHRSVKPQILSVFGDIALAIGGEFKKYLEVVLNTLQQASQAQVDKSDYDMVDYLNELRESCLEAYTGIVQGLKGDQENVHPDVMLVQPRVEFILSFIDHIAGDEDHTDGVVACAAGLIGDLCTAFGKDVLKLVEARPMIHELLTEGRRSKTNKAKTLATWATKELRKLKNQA
ATP-dependent Clp protease proteolytic subunit (Bacillus subtilis (strain 168)), P80244, UniProt P80244, whole entry, looked up: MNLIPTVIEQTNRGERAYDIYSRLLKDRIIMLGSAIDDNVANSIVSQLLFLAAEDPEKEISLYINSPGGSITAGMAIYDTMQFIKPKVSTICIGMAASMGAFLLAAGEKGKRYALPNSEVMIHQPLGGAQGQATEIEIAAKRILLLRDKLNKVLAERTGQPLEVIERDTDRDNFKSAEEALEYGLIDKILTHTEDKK

molecule | Rango release inh | Rango-impB inh | CBFb RUNX1 block | MBNL1-CUG inh | ClpP mod
CCOC(=O)c1cnc2ccc(OCC)cc2c1NCc1ccccc1OC | 24% | 7% | -4% | . | 22µM*
CC1=NNC(=O)C1CC(=O)N/N=C/c1sccc1C (stereo unspecified) | 4% | 3% | 14% | 9% | .
COc1cc(OC)c(OC)cc1/C=N/NC(=O)CC1C(=O)NN=C1C (stereo unspecified) | 3% | 2% | 7% | 14% | 28µM*
COc1ccc(-c2nc3sc(CCNC(=O)Cc4ccccc4)c(C)n3n2)cc1 | . | . | . | . | -8%
COc1ccc(-c2[nH]c(-c3ccccc3)nc2SCC(=O)NC2CCCC2)cc1 | 0% | 5% | -7%[2.36 µM] | -37% | 22µM*!
COc1ccc(-c2[nH]c(-c3cccc(OC)c3)nc2SCC(=O)NC2CCCC2)cc1 | 1% | 0% | 3%[2.36 µM] | -28% | 25µM*!
COc1ccc(-c2[nH]c(-c3ccc(F)cc3)nc2SCC(=O)NC2CCCC2)cc1 | 9% | 1% | 4%[2.36 µM] | -2% | 5%
Cc1ccc(OCC(=O)Nc2ccc(S(=O)(=O)Nc3cc(C)nc(C)n3)cc2)c(Br)c1 | . | . | . | . | 0%
Cc1noc(C)c1C(=O)NCc1ccccc1 | 1% | 4% | 2% | -12% | 32µM*
CC1=C(c2ccc(C)c(C)c2)S(=O)(=O)N(Cc2ccc(C(=O)NCc3ccc(C)cc3)cc2)C1=O | . | . | . | . | 11µM*
O=C(OCc1cc(=O)n2nc(C3CCCCC3)sc2n1)c1ccc(F)cc1 | . | . | . | . | -2%
Cc1nn2c(c1-c1ccc(Cl)cc1)N=C(c1ccco1)CC2c1ccccc1 (stereo unspecified) | -21% | 58µM* | -24% | -1% | -2%
Cc1cccc(Cn2c(=O)n(-c3cc(C)cc(C)c3)c(=O)c3oc4ccccc4c32)c1 | . | . | . | . | -17%
COc1cccc(Cn2c(=O)n(-c3cc(C)cc(C)c3)c(=O)c3oc4ccccc4c32)c1 | . | . | . | . | 35µM*
Cc1ccc(NC(=O)C2CCCN2S(=O)(=O)c2ccc3c(c2)CCCC(=O)N3)cc1C (stereo unspecified) | . | . | . | . | -1%
Cc1ccsc1C1Nc2ccc3ncccc3c2C2=C1C(=O)CC(C)(C)C2 (stereo unspecified) | -15% | ? | 1% | 30% | -23%
CC1(C)CC(=O)C2=C(C1)c1c(ccc3ccccc13)NC2c1ccco1 (stereo unspecified) | -13% | -2% | -8% | 8% | 25µM*
Cc1nc2c(c(C)c1CCC(=O)NCc1ccc(F)cc1)c(=O)n(C)c(=O)n2C | . | . | . | . | -14%
CNc1c(Br)cc(/C=C2\C=Cc3ccccc32)cc1Br | . | . | . | . | 1%
COc1ccc(-c2nc3ccc(C)cn3c2NCc2ccc3c(c2)OCO3)cc1 | -7% | 1% | -1% | 9% | ?

Results in ClpP mod, MBNL1-CUG inh and CBFb RUNX1 block (two entries from above):
mol	ClpP mod	MBNL1-CUG inh	CBFb RUNX1 block
COc1ccc(-c2[nH]c(-c3cccc(OC)c3)nc2SCC(=O)NC2CCCC2)cc1	25µM*!	-28%	3%[2.36 µM]
COc1ccc(-c2[nH]c(-c3ccc(F)cc3)nc2SCC(=O)NC2CCCC2)cc1	5%	-2%	4%[2.36 µM]

3 compounds already listed, arranged by the number in CBFb RUNX1 block, falling.
structure	CBFb RUNX1 block
CC1=NNC(=O)C1CC(=O)N/N=C/c1sccc1C (stereo unspecified)	14%
COc1cc(OC)c(OC)cc1/C=N/NC(=O)CC1C(=O)NN=C1C (stereo unspecified)	7%
CC1(C)CC(=O)C2=C(C1)c1c(ccc3ccccc13)NC2c1ccco1 (stereo unspecified)	-8%

Continued:
molecule | Rango release inh | Rango-impB inh | CBFb RUNX1 block | MBNL1-CUG inh | ClpP mod
Cc1ccc(-c2nc3ccccn3c2NCc2ccc3c(c2)OCO3)cc1 | -20% | ? | ? | 22% | 32µM*
CCOc1ccc(NC(=O)N(C(C)C)C2CCN(C(C)=O)CC2)cc1 | . | . | . | . | 1%
CCOC(=O)c1ccccc1NC(=O)N(C(C)C)C1CCN(C(C)=O)CC1 | . | . | . | . | 28µM*
Cc1cc(O)c(C(C)C)cc1Cl | . | . | 4% | . | .
CC(=O)c1cccc(NC(=O)c2cccn2-c2nnc(N3CCCCC3)s2)c1 | . | . | . | . | 0%
CC(C)Sc1nc2sc3c(c2c2nnc(SCC(=O)NCc4ccco4)n12)CCCC3 | -4% | -1% | 3% | -3% | 32µM*
Cc1cccc(NC(=O)c2cc(-c3ccc(C)s3)nc3ccccc23)n1 | -4% | ? | ? | 36% | 16µM*
CN(C)S(=O)(=O)c1cccc(NC(=O)c2cc(-c3cccs3)nc3ccccc23)c1 | 3% | -4% | -9% | . | 16µM*
